Ends that are not written are not given here.
Legend:
[1] = target: MBP-His8-REV7(R124A)-FLAG protein (Homo sapiens, UniProt Q9UI95, R124A); test: WaterLOGSY NMR with MBP-REV7; assay type: binding; settings: compound 200 μM, protein 10 μM, 298K
[2] = target: MBP-His8-REV7(R124A)-FLAG (UniProt Q9UI95 1-211, R124A); test: fluorescence polarisation

## CC(=O)N1CCC(Cn2cnc3scc(-c4ccc(C)o4)c3c2=O)CC1 [compound 7]
[1]
  Direct binding to REV7(R124A) by WaterLOGSY NMR: directly binds

## ANILKPLMSPPSREEIMATLL-{TAMRA} [C-terminal TAMRA-tagged REV3L(1875–1895) peptide]
[2]
  binding result: binds

## ANILKPLMSPPSREEIMATLL [non-tagged REV3L(1875–1895) peptide]
[2]
  IC50: 300 nM
